Assay results reported in ChEMBL document CHEMBL1126717 (J Med Chem, 1993).

Molecular target: T1, Cyclooxygenase (Rattus norvegicus, UniProt P35355+Q63921)
T1 sequence (P35355 whole entry): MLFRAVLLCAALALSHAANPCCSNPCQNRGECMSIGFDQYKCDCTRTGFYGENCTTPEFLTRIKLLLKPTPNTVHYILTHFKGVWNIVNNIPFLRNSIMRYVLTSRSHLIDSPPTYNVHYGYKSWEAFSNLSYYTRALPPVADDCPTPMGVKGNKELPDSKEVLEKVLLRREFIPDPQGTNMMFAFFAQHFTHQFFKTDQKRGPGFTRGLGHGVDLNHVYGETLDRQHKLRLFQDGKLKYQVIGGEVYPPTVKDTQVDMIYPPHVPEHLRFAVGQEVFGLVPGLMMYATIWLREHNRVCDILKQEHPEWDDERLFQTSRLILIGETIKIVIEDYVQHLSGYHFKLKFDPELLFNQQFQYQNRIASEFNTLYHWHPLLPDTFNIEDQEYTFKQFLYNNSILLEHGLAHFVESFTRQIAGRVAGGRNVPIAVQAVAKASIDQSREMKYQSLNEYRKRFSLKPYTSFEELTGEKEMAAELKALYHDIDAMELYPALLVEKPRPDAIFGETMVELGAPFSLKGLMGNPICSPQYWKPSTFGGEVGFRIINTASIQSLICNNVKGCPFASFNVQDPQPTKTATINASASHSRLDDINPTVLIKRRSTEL
T1 sequence (Q63921 whole entry): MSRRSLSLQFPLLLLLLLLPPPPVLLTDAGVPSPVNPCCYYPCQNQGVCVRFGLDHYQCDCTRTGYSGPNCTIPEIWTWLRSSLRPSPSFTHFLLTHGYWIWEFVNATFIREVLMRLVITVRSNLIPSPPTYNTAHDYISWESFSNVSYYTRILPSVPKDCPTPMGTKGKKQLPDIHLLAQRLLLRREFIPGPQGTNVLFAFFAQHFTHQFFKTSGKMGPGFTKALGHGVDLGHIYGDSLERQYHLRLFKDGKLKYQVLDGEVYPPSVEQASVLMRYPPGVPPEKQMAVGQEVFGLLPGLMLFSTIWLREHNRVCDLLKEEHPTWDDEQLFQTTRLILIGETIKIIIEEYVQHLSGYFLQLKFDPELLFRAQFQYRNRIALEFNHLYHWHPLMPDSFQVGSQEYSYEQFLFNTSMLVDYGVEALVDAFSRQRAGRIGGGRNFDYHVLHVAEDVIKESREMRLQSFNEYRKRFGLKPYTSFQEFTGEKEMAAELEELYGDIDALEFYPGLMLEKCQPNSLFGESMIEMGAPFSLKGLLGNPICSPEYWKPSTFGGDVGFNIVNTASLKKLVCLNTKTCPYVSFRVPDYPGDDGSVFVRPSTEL
Assay: Inhibition of Prostaglandin G/H synthase mediated PGF2-alpha formation in rat basophilic leukemia (RBL-1) cells
Type: cell-based

FC(F)(F)c1cccc(Nc2ccccc2-c2n[nH]c(S)n2)c1
IC50: 510 nM
